Experiment: Aggregation behaviour, UV-vis absorption and fluorescence spectra in DMF and aqueous solubiliser solutions
Type: physicochemical
Experimental: Aggregation behavior, photophysical characterization and solubilisation studies. Photophysical properties of zinc complexes of amphiphilic meso-arylporphyrins and their conjugates with terpyridine were studied in DMF and aqueous solutions of different solubilisers. Stock solutions of 1 mM of the studied compounds in DMF were added upon stirring to a micellar aqueous solution of a solubiliser (3 mL). The final concentration of the porphyrins was 3.5 µM. UV-vis absorption spectra were recorded using HACH DR-4000V spectrophotometer (Hach-Lange, Loveland, CO, USA) within the wavelength range of 320–800 nm with a step of 1 nm in quartz cells (10 mm) at room temperature. Steady-state fluorescence spectra were recorded using Perkin Elmer LS-50 (USA) luminescent spectrometer under similar conditions with the Soret band maximum excitation. Fluorescence quantum yields (ΦF) for Zn(II) complexes in DMF were measured according to the procedure using ZnTPP as a standard (ΦF = 0.033).

CCCCCCOc1ccc(-c2c3nc(c(-c4ccc(OCCCCCC)cc4)c4ccc([n-]4)c(-c4ccc(OCc5ccc(-c6cc(-c7ccccn7)nc(-c7ccccn7)c6)cc5)cc4)c4nc(c(-c5ccc(OCCCCCC)cc5)c5ccc2[n-]5)C=C4)C=C3)cc1.[Zn+2] [compound 12]
λem, first band (Brij-58 (0.5 mM)): 615 nm | λmax (Brij-58 (0.5 mM)): 428 | λem, first band (Cremophor (1% Cremophor EL)): 614 nm | λQ (second Q band) (DMF): 602 nm | λem, first band (DMSO): 614 nm | λem, second band (DMSO): 664 nm | λmax (DMSO): 428 | lgε (H2O): 5.17 | λem, first band (H2O): 614 nm | λmax (H2O): 433 | λem, first band (Pluronic (1% Pluronic F-127)): 617 nm | λmax (Pluronic (1% Pluronic F-127)): 428 | I1/I2 (emission band intensity ratio) (TX-100 (1 mM)): 1.83 | λem, first band (TX-100 (1 mM)): 612 nm | λem, second band (TX-100 (1 mM)): 663 nm | λmax (TX-100 (1 mM)): 428 | λem, first band (Tween-80 (0.5 mM)): 612 nm | λem, second band (Tween-80 (0.5 mM)): 662 nm | λmax (Tween-80 (0.5 mM)): 428

Reference: PMC9865040, “Design of A3B-Porphyrin Conjugates with Terpyridine as Potential Theranostic Agents: Synthesis, Complexation with Fe(III), Gd(III), and Photodynamic Activity” (Pharmaceutics, 2023)
